The text below walks through data of IntAct's records for PubMed 21765415.

Sequences and labels used below:
B1: Tax1-binding protein 1 (Homo sapiens), Q86VP1-2 (parent)
chain: MTSFQEVPLQTSNFAHVIFQNVAKSYLPNAHLECHYTLTPYIHPHPKDWVGIFKVGWSTARDYYTFLWSPMPEHYVEGSTVNCVLAFQGYYLPNDDGEFYQFCYVTHKGEIRGASTPFQFRASSPVEELLTMEDEGNSDMLVVTTKAGLLELKIEKTMKEKEELLKLIAVLEKETAQLREQVGRMERELNHEKERCDQLQAEQKGLTEVTQSLKMENEEFKKRFSDATSKAHQLEEDIVSVTHKAIEKETELDSLKDKLKKAQHEREQLECQLKTEKDEKELYKVHLKNTEIENTKLMSEVQTLKNLDGNKESVITHFKEEIGRLQLCLAEKENLQRTFLLTTSSKEDTCFLKEQLRKAEEQVQATRQEVVFLAKELSDAVNVRDRTMADLHTARLENEKVKKQLADAVAELKLNAMKKDQDKTDTLEHELRREVEDLKLRLQMAADHYKEKFKECQRLQKQINKLSDQSANNNNVFTKKTGNQQKVNDASVNTDPATSASTVDVKPSPSAAEADFDIVTKGQVCEMTKEIADKTEKYNKCKQLLQDEKAKCNKYADELAKMELKWKEQVKIAENVKLELAEVQDNYKELKRSLENPAERKMEDGADGAFYPDEIQRPPVRVPSWGLEDNVVCSQPARNFSRPDGLEDSEDSKEDENVPTAPDPPSQHLRGHGTGFCFDSSFDVHKKCPLCELMFPPNYDQSKFEEHVESHWKVCPMCSEQFPPDYDQQVFERHVQTHFDQNVLNFD
partner: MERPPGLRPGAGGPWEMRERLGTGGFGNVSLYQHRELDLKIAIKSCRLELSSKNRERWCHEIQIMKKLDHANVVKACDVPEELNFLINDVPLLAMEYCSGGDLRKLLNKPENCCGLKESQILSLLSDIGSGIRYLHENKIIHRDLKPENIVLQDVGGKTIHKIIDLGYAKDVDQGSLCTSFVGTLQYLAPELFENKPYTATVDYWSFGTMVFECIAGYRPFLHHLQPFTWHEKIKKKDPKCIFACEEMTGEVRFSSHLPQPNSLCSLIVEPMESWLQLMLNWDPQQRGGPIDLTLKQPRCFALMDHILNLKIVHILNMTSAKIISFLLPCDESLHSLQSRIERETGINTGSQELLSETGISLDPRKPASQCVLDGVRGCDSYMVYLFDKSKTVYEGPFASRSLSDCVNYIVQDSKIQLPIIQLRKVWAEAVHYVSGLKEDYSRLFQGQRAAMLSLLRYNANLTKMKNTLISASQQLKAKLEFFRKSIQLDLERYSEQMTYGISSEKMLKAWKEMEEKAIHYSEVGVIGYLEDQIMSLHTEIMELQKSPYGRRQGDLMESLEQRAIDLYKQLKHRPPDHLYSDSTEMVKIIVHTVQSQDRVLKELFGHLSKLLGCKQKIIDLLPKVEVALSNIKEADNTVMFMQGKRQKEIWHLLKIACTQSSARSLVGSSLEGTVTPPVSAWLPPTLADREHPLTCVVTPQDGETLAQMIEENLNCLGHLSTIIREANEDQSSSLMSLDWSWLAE

This test covers variants of B1. Particulars: with ikka_mouse Chuk.
Turning to S624A, the “effect of a mutation on the interaction” value is given as “disrupting interaction”.
